Each structure is given as a SMILES string. ± gives the expanded uncertainty stated by the source.

The conditions of the series: 313.15 K; Liquid; Ebulliometric method (Recirculating still).

Consider `CCCCOCCCC` [dibutyl ether], for which the “vapor or sublimation pressure” value was 2.055 ± 0.047 kPa [middle of 7 runs].

The record behind these values is the NIST ThermoML archive (doi:10.1021/je7007523).
